Legend:
rat = rat paw pressure test (analgesia)
mu opioid receptor = mu opioid receptor (Cavia porcellus, UniProt A0ACM8Q262); assay: mu opioid receptor binding: tritiated DAGO, guinea pig brain homogenates; settings: read-out: Receptor Binding (Ki moles/liter) Mu, 150 minutes at 0° C.
kappa opioid receptor [1] = molecular target: kappa opioid receptor (Cavia porcellus, UniProt P41144); assay: kappa opioid receptor binding: inhibition of tritiated etorphine binding to guinea pig brain homogenates with DADLE and DAGO added to saturate delta and mu receptors; settings: for Ratio of kappa/mu binding: from Ki kappa and Ki mu; for Ki: read-out: Receptor Binding (Ki moles/liter) Kappa, tritiated etorphine, guinea pig brain homogenates, 200 nanomolar DADLE and 200 nanomolar DAGO
kappa opioid receptor [2] = settings: P. V. Vanvoigtlander et al., J. Pharmacol. Exp. Ther., 224: 7-12 (1983); cited from earlier work

Chains of the proteins cited; added tags and fusions are not shown. Lines headed by an entry give the natural chain unless they say otherwise; changes in a name come on top. Residues count along the entry.
UniProt A0ACM8Q262, 1-400: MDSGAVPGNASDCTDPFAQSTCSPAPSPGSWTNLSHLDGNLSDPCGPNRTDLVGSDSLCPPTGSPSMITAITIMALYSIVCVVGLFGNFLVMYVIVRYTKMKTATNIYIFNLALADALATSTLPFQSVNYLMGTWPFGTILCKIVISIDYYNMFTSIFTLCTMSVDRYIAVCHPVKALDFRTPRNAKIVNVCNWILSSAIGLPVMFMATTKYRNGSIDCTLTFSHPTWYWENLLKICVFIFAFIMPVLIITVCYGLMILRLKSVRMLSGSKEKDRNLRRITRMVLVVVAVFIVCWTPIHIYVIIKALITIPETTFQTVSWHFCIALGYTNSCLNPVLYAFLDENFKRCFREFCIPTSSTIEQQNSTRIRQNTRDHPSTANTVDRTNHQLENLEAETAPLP
UniProt P41144: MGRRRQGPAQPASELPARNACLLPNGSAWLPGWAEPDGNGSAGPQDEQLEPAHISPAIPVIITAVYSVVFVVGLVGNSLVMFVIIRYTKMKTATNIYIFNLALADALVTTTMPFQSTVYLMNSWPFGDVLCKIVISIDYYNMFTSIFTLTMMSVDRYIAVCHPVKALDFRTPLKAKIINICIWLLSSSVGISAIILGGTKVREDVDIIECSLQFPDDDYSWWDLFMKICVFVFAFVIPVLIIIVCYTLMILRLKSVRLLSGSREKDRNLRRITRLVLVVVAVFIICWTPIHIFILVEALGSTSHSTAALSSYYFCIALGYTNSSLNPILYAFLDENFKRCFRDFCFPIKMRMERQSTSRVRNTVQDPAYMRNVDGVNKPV

Compound | Rat Paw Pressure (MPE50 I.V.) (rat) [Mg/kg] | Ki (mu opioid receptor) [nM] | Ratio of kappa/mu binding (kappa opioid receptor [1]) | Ki (kappa opioid receptor [1]) [nM] | kappa opioid receptor agonist activity (in words) (kappa opioid receptor [2])
CN(C(=O)Cc1cc2ccccc2s1)C1CCC2(CCCO2)CC1N1CCCC1 (stereo not drawn) | 0.03 | 86.2 | 49 | 1.75 | 
CN(C(=O)Cc1cccc2sccc12)[C@@H]1CCC2(CCCO2)C[C@H]1N1CCCC1 (stereo partly drawn) | 0.02 | 484 | 163 | 2.97 | 
CN(C(=O)Cc1ccc(Cl)c(Cl)c1)[C@@H]1CCCC[C@H]1N1CCCC1 (relative stereo) |  |  |  |  | selective kappa opioid receptor agonist activity

— patent publication US4737493A, “7-((substitu ted)amino)-8-((substituted)carbonyl)-methylamino)-1-oxaspiro(4,5)decanes as analgesic agents” (dated 1988)
